Measured values from US7622438B1, “Protein formulation for promoting hard tissue formation” (Acologix, Inc., priority 2005, dated 2009).

How the values were obtained:
Smad1/5/8 = assay: Phosphorylation of Smad1/5/8 by Western blotting in primary osteoblasts; type: cell-based, mouse; settings: 25 ng/mL BMP-2 alone
Description: Materials and Methods: Primary osteoblasts collected from fetal mouse calvaria were cultured with 0 or 25 ng/mL of BMP-2 with the addition of 0 or 2 uM of the peptide of SEQ ID No. 8 to the culture system. Phosphorylation of Smad1/5/8 was evaluated by Western blotting at 0, 0.5, 1, 2, 12, 24, 48 and 72 hours.

[1] = tested on: hard tissue forming cells; assay: General activity statements on hard tissue forming cells; settings: suboptimal concentration of rhBMP-2 alone
[2] = tested on: dorsal muscle of mice (ICR); assay: Ectopic bone formation from polymer pellets implanted in mouse dorsal muscle; type: in vivo
From the text: Materials and Methods: Polymer pellets containing both BMP-2 and the peptide of SEQ ID No. 8 in the following amounts (see table below) were implanted in the dorsal subfascia of 4 week old ICR mice. The mice were sacrificed 3 weeks later and the newly formed bones were isolated for evaluation using soft X-ray radiograph and bone mineral density determination.

B1: rhBMP-2: commercial available recombinant human bone morphogenic protein-2 (protein, UniProt P12643 283-396, looked up)
Bone morphogenetic protein 2: QAKHKQRKRLKSSCKRHPLYVDFSDVGWNDWIVAPPGYHAFYCHGECPFPLADHLNSTNHAIVQTLVNSVNSKIPKACCVPTELSAISMLYLDENEKVVLKNYQDMVVEGCGCR
With B1 the “time over which phosphorylation of Smad1/5/8 was detectable” value (Smad1/5/8) was 0.5 to 12 h, the “COX-2 or PGE2” value [1] was “marginally upregulated” and the “bone formation compared to a 5 μg dose” value ([2]; 3 μg rhBMP-2 (suboptimal dose)) was “substantially less bone formation”. The new bone formation ([2]; 5 μg or higher rhBMP-2 in PLA/PEG/DX polymer, about 20 days) was “new bone tissue was locally formed”.
